Measurements published in patent US11015179B2, “Peptide having anti-viral effect and composition containing same” (priority 2015, dated 2021).

Test system: HSP90
Assay: HSP90 immunofluorescence staining of JFH-1 cells
Format: cell-based, human
Source text: Human liver biopsy tissue samples were obtained from chronic HCV or HBV patients and autoimmune hepatitis (AIH) patients as a control group, under the supervision of the Institutional Review Board (IRB) of Soonchunhyang University Hospital in Bucheon (2014-12-034) and Seoul National University Hospital (1410-136-621). To evaluate the HSP90 expression in liver cells and JFH-1 cells, liver tissue or JFH-1 cells were stained with anti-HSP90 antibodies (Cell Signaling Technology). To visualize the tissue or cells, Alexa Fluor 594-conjugated anti-rabbit IgG (Invitrogen) was used. For counterstaining of the cell nucleus, 4′,6-diamino-2-phenylindole (DAPI, Sigma-Aldrich) was used. Images were obtained and processed using a confocal microscope system A1 (Nikon, Minatoku, Tokyo, Japan) and an NIS-elements 4.20 viewer (Nikon).

**Q.** What does the source list for `CC[C@H](C)[C@H](NC(=O)[C@H](Cc1ccccc1)NC(=O)[C@H](CCCNC(=N)N)NC(=O)[C@H](CC(C)C)NC(=O)[C@H](CCCNC(=N)N)NC(=O)[C@H](CO)NC(=O)[C@@H](NC(=O)[C@H](CC(C)C)NC(=O)[C@H](CC(C)C)NC(=O)[C@H](C)NC(=O)[C@@H]1CCCN1C(=O)[C@H](CCCNC(=N)N)NC(=O)[C@H](C)NC(=O)[C@@H](N)CCC(=O)O)[C@@H](C)O)C(=O)N1CCC[C@H]1C(=O)N[C@@H](CCCCN)C(=O)O` [PEP1, EARPALLTSRLRFIPK]?
**A.** iHSP90 in JFH-1 cells: reduced iHSP90; HSP90 expression vs control group (PBS) (PEP1 10 μM, 2 hours (FIG. 21)): lower HSP90 expression than the control group
